{"source": "patent US20250074946A1", "about": "“USE OF SE-DR AFFINITY PEPTIDE IN PREPARING DRUG FOR TREATING RHEUMATIC DISEASE” (HEBEI FITNESS BIOTECHNOLOGY CO., LTD., priority 2021, published 2025)", "key": {"[1]": {"system": "CIA mice infected with chronic hepatitis B", "experiment": "CIA mice infected with chronic hepatitis B (Example 8)", "assay_type": "in vivo, mouse", "conditions": "for ALT level / Hepatitis B activation rate (Ratio of ALT > 100 U/L): at sacrifice, day 28; for Inflammation score and area under the time curve (AUC): peptides 50 μmol, Abatacept 100 μg, tail i.v. once every other day for 27 days"}, "CIA mice": {"system": "CIA mice", "assay_type": "in vivo, mouse"}, "mice": {"system": "mice", "conditions": "preclinical carcinogenesis safety experiment; cited from earlier work"}, "[2]": {"conditions": "inflammation score AUC, FNS007 0.2 mmol, abatacept 5 mg/kg, i.v. once every other day"}}, "note": "Read-outs that look alike come from different tables or passages of the source.", "data": [{"substance": "abatacept", "values": [{"measurement": "ALT level", "setting": "[1]", "result": "103.59 ± 32.84", "unit": "U/L"}, {"measurement": "Hepatitis B activation rate (Ratio of ALT > 100 U/L)", "setting": "[1]", "result": 50, "unit": "%"}, {"measurement": "ALT level", "setting": "[1]; listed as abatacept", "result": "significantly increased"}, {"measurement": "Hepatitis B activation rate (Ratio of ALT > 100 U/L)", "setting": "[1]; listed as abatacept", "result": 50, "unit": "%"}, {"measurement": "Observation on the daily condition of mice", "setting": "[1]; during administration", "result": "obvious toxicity symptoms such as piloerection and reduced activity"}, {"measurement": "Inflammation score and area under the time curve (AUC)", "setting": "[1]", "result": "88.29 ± 48.40"}, {"measurement": "Inflammation score and area under the time curve (AUC)", "setting": "[1]; listed as abatacept", "result": "significantly reduce the inflammation score"}, {"measurement": "inflammation score during drug discontinuation compared with that at the time of drug discontinuation", "setting": "CIA mice; 28 days of observation after stopping at day 28", "result": "significantly increased"}, {"measurement": "Pathological score during 28 days of drug discontinuation", "setting": "CIA mice; HE staining of ankle joint, score 0-4", "result": "2.89 ± 0.80"}, {"measurement": "AUC, during drug discontinuation (day 29-56)", "setting": "CIA mice; inflammation score AUC after stopping administration at day 28", "result": "143.55 ± 77.82"}, {"measurement": "AUC, during administration (day 1-28)", "setting": "CIA mice; [2]", "result": "89.16 ± 51.44"}, {"measurement": "AUC, the first week during administration", "setting": "CIA mice; [2]", "result": "23.33 ± 9.17"}, {"measurement": "AUC, during administration (day 1-28)", "setting": "CIA mice; inflammation score AUC, FNS007 0.2 mmol, abatacept 5 mg/kg, i.v. once every other day, listed as abatacept", "result": 89.16}, {"measurement": "Incidence of infection in mice", "setting": "CIA mice; mouse, in vivo", "result": 16.7, "unit": "%"}, {"measurement": "Observation on the daily state of mice", "setting": "CIA mice; mouse, in vivo", "result": "Piloerection, epistaxis, prostration, reduced activity, etc."}, {"measurement": "mice in the treatment group died of lymphoma", "setting": "mice", "result": "about 50%"}]}]}
